scFv variants of Ab-14 (light chain) against a SARS-CoV-2 spike peptide

The target is the same throughout: PDVDLGDISGINAS, from the HR2 region of SARS-CoV-2 spike.

Parent: Ab-14, a human scFv built as VH, the linker GGGGSGGGGSGGGGS, VL. Only the CDRs of the light chain vary.
VH: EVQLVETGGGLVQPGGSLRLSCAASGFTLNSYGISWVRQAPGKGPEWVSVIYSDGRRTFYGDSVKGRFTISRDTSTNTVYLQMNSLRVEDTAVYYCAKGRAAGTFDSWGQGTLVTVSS
VL: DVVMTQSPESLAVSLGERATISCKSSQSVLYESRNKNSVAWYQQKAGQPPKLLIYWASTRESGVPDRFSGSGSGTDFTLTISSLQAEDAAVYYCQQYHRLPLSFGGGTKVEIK

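The parent was found by panning a naive human phage display library on the peptide. AAYL50 was designed without a model: most single CDR substitutions and a random sample of double and triple ones. In AlphaSeq, yeast of one mating type display the scFv and yeast of the other type display the target. Binding brings cells together so that they mate, and sequencing counts the barcode pairs among the diploids. Read counts were normalised to the haploid input and turned into Kd by a linear fit to BCL2-family pairs of known affinity, for each replicate. Mating was done three times.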

Positions count from residue 1 of the parent VL; R34V puts V in place of R.
Values are log10 of the apparent Kd in nM; lower means stronger binding.
"n.d." means that the variant was in the library but no mating with the target was seen in that replicate; the authors take this as a sign of poor binding, and no number exists.
For reference, the parent read 0.65 as the reference entry and 1.68 as a member of this library.
Background: pairings of library AAYL50 with three empty control strains gave a value in 18% of cases (median 4.19, 5th percentile 2.99). Values in that range, when seen in few replicates, are hard to tell from nonspecific mating. The control count says in how many pairings with the empty strains this scFv gave a signal, with their mean in brackets.

{"changes": "R34V K36Q W56S", "replicates, log10 nM": "-0.14 / 0.18 / -0.05", "empty controls": "3 of 9 (5.43)"}
{"changes": "L30G V39R S62K", "replicates, log10 nM": "n.d. / n.d. / n.d.", "empty controls": "1 of 9 (2.60)"}
{"changes": "L30M A40D", "replicates, log10 nM": "3.92 / n.d. / n.d.", "empty controls": "0 of 9"}
{"changes": "L30H", "replicates, log10 nM": "1.32 / 1.41 / 1.40", "empty controls": "1 of 9 (4.78)"}
{"changes": "T59I R60D Y97I", "replicates, log10 nM": "n.d. / n.d. / n.d.", "empty controls": "1 of 9 (4.45)"}
{"changes": "S28I V29L V39I", "replicates, log10 nM": "1.00 / 1.20 / 1.23", "empty controls": "2 of 9 (4.42)"}
{"changes": "V29E A40L L102Y", "replicates, log10 nM": "n.d. / n.d. / n.d.", "empty controls": "0 of 9"}
{"changes": "A40R A57N L102Q", "replicates, log10 nM": "4.31 / 4.22 / n.d.", "empty controls": "3 of 9 (3.66)"}
{"changes": "S58P R60P L100I", "replicates, log10 nM": "n.d. / 3.64 / n.d.", "empty controls": "4 of 9 (5.07)"}
{"changes": "K24R W56D", "replicates, log10 nM": "-0.23 / 0.08 / -0.12", "empty controls": "9 of 9 (4.60)"}
{"changes": "A40S A57C E61M", "replicates, log10 nM": "4.04 / n.d. / n.d.", "empty controls": "3 of 9 (4.51)"}
{"changes": "S28H V39G", "replicates, log10 nM": "n.d. / n.d. / n.d.", "empty controls": "0 of 9"}
{"changes": "N37H Q96F", "replicates, log10 nM": "1.89 / 2.05 / 2.21", "empty controls": "1 of 9 (2.49)"}
{"changes": "E32Q A40M L102S", "replicates, log10 nM": "n.d. / 2.98 / 5.03", "empty controls": "0 of 9"}
{"changes": "S25V S62P Y97N", "replicates, log10 nM": "0.97 / 1.21 / 1.05", "empty controls": "1 of 9 (2.95)"}
{"changes": "A40G Q95I P101K", "replicates, log10 nM": "n.d. / n.d. / n.d.", "empty controls": "0 of 9"}
{"changes": "S28D N35D Q95D", "replicates, log10 nM": "n.d. / n.d. / n.d.", "empty controls": "1 of 9 (4.12)"}
{"changes": "S25R Q27V R99M", "replicates, log10 nM": "2.01 / 2.55 / n.d.", "empty controls": "0 of 9"}
{"changes": "K36C W56M S58R", "replicates, log10 nM": "1.04 / 0.71 / 1.91", "empty controls": "0 of 9"}
{"changes": "T59N Q96H S103M", "replicates, log10 nM": "1.00 / 1.31 / 0.76", "empty controls": "6 of 9 (4.72)"}
{"changes": "K24C N37E S62Y", "replicates, log10 nM": "4.62 / 3.12 / 4.33", "empty controls": "3 of 9 (4.40)"}
{"changes": "E32G S38I Q96P", "replicates, log10 nM": "n.d. / 5.18 / 5.10", "empty controls": "2 of 9 (4.18)"}
{"changes": "K24L Y31D R34M", "replicates, log10 nM": "1.18 / 1.37 / 1.42", "empty controls": "2 of 9 (4.80)"}
{"changes": "K24E L30S H98L", "replicates, log10 nM": "4.10 / 2.21 / 2.26", "empty controls": "1 of 9 (3.51)"}
{"changes": "L30G K36V P101Y", "replicates, log10 nM": "0.64 / 0.95 / 0.85", "empty controls": "3 of 9 (3.93)"}
{"changes": "A40K A57E L102V", "replicates, log10 nM": "n.d. / n.d. / n.d.", "empty controls": "0 of 9"}

The last 2 entries again:

{"changes": "L30G K36V P101Y", "replicates, log10 nM": "0.64 / 0.95 / 0.85", "empty controls": "3 of 9 (3.93)"}
{"changes": "A40K A57E L102V", "replicates, log10 nM": "n.d. / n.d. / n.d.", "empty controls": "0 of 9"}

From the AlphaSeq antibody data of Engelhart et al. 2022 (doi:10.1038/s41597-022-01779-4), copy in the FLAb collection.